Experiments:
[1] = biological target: TGGTCA matched site on 250-bp EcoRI/PvuII restriction fragment from plasmid pDEH9; assay: Quantitative DNase I footprint titration, matched site; conditions: read-out: Equilibrium Dissociation Constants Kd, TGGTCA, 12 h at 22° C., TKMC buffer pH 7.0
Protocol: (§1) Quantitative DNaseI footprinting can be used to determine the equilibrium association constants for binding to match and mismatch sites. Footprinting experiments are generally performed on 3′- and/or 5′-^32P end restriction fragments derived from plasmids. 3′-shifted cleavage patterns are consistent with location of the polyamide in the minor groove. Typical reaction conditions are: 10 mM Tris-HCl, 10 mM KCl, 10 mM MgCl2, 5 mM CaCl2, pH 7.0, and 22° C. See Brenowitz et al. (1986). Methods Enzymol. 130:132-181; Fox & Waring (1984) Nucleic Acids Res. 12:9271-9285; and Brenowitz et al. (1986) Proc. Natl. Acad. Sci. U.S.A. 83: 8462-8466.
(§2) DNase I Footprinting: Dissociation constants for the DNA binding of compounds 1, 2 and 3 were obtained following published protocols. All reactions were carried out in 400 μL total volume employing 20 kcpm of a 3′-radiolabelled 250-bp restriction fragment from the plasmid pDEH9 (FIG. 1a) (SEQ. ID. NO: 4). […]
(§3) FIGS. 1b, 1c, and 1d are quantitative DNAse I footprint titration experiments for compounds 1, 2 and 3 on the 3′^−32 P-labeled 250-bp EcoRI/PvuII restriction fragment from the plasmid pDEH9. […]
(§4) The DNA-binding properties of the compounds 1-3 were investigated by quantitative DNase 1 footprinting assays. […]

Amino acid sequences for entries named in this document (tags omitted). Residues count along the entry.
UniProt P40427, 238-324 limits assumed: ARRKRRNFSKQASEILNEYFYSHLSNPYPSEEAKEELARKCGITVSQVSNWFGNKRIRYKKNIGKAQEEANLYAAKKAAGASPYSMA

[2] = biological target: extradenticle (Exd) protein (residues 238-324) (Drosophila melanogaster, UniProt P40427); assay: EMSA: recruitment of Exd to its cognate DNA site by polyamides 1-3; conditions: saturating 50 nM compound; Exd 0-100 nM
Source text: Protein expression: Drosophila extradenticle (Exd) protein comprising the homeodomain and the extended fourth helix (residues 238-324), as well as ultrabithorax (Ubx) protein homeodomain (residues 233-313 of the Ubx isoform IVa) were expressed and purified after Passner & Aggarwal. The purified proteins Exd and Ubx were used for EMSA studies as described below.
For the templates, the DNA oligonucleotides depicted in FIGS. 2a, 2b, 2c, and 2d were used, SEQ. ID NOS: 5, 6, 7, and 8, respectively. The DNA upper strand was annealed with the respective matching lower strand and both strands were 5′-labeled with γ-^32P-ATP and polynucleotide kinase, using standard procedures.
Gel-shift experiments: The master mix contained 50% BSA/50% glycerol, reaction buffer (150 mM potassium glutamate, 50 mM HEPES pH 7.0, 1 mM DTT, and 5′-end labeled DNA (^32P) The final concentrations in the samples were 100 ng/μL BSA and 10% glycerol. Polyamides were kept in subdued lighting whenever possible. Upon addition of the polyamide to 1 pM DNA, the samples were incubated at 25 °C. for 30 minutes in a 20 μL reaction. Next, Exd was added to the samples and incubated for 1 hour at 4° C. A 9% acrylamide/3% glycerol gel was pre-run for 15 min prior to loading. In each lane 15 μL of a 20 μL reaction were loaded while the gel was running to prevent the samples from being diluted. […]

[3] = biological target: AGCTCA mismatch site on 250-bp EcoRI/PvuII restriction fragment from plasmid pDEH9; assay: Quantitative DNase I footprint titration, mismatch site AGCTCA
Protocol: as §1, §2, §3, §4

[4] = biological target: TGGCCA mismatch site on 250-bp EcoRI/PvuII restriction fragment from plasmid pDEH9; assay: Quantitative DNase I footprint titration, mismatch site TGGCCA
Protocol: as §1, §2, §3, §4

[5] = tested on: TGGGCA mismatch site on 250-bp EcoRI/PvuII restriction fragment from plasmid pDEH9; assay: Quantitative DNase I footprint titration, mismatch site TGGGCA
Protocol: as §1
DNase I Footprinting: Dissociation constants for the DNA binding of compounds 1, 2 and 3 were obtained following published protocols. All reactions were carried out in 400 μL total volume employing 20 kcpm of a 3′-radiolabelled 250-bp restriction fragment from the plasmid pDEH9 (FIG. 1a) (SEQ. ID. NO: 4). No carrier DNA was used in the equilibration, and the solutions were allowed to equilibrate for 12 h at 22° C. in TKMC buffer (10 mM TRIS, 10 mM KCl, […], 5 mM CaCl2 pH 7.0) prior to the DNase I digestion. Reaction products (8 kcpm) were resolved on denaturing 8% polyacrylamide sequencing gels run at 55 W.
FIGS. 1b, 1c, and 1d are quantitative DNAse I footprint titration experiments for compounds 1, 2 and 3 on the 3′^−32 P-labeled 250-bp EcoRI/PvuII restriction fragment from the plasmid pDEH9. Lane 1: Intact DNA. Lane 2: A-reaction. Lane 3: G-reaction. Lane 4: DNAse 1 standard.
The DNA-binding properties of the compounds 1-3 were investigated by quantitative DNase 1 footprinting assays. The equilibrium binding constants of each of the compounds for a matched versus three single base pair mismatch sites is compiled in Table 1. The lower strand sequence is shown in the header. Mismatched base pairs are underlined. The residue under the YPWM peptide is in bold. Relative specificities are given in square brackets.

Exd = Exd (Drosophila melanogaster, UniProt P40427); assay: Example 7 EMSA: recruitment of Exd by linker compounds; assay type: binding; conditions: 50 nM conjugate pre-incubated with target DNA; data not shown
[6] = relative to matched site TGGTCA

`CN(C)CCCNC(=O)CCNC(=O)c1cc(NC(=O)c2cc(NC(=O)c3cc(NC(=O)c4nc(NC(=O)CCCNC(=O)c5cc(NC(=O)c6cc(NC(=O)c7nc(NC(=O)c8nccn8C)cn7C)cn6CCCN)cn5C)cn4C)cn3C)cn2C)cn1C` was tested, and the Kd [1] was 0.048 nM, the “ability to recruit Exd to its cognate DNA site (Exd binding)” value [2] was “Neither compound 3 nor 1 showed any ability to recruit Exd” and the Kd ([3]; read-out: Equilibrium Dissociation Constants Kd, AGCTCA, single base pair mismatch site, 22° C., TKMC buffer) was 3.1 nM. The “Relative specificity (square brackets), AGCTCA” value [3, 6] was 65, the Kd ([4]; read-out: Equilibrium Dissociation Constants Kd, TGGCCA, single base pair mismatch site, 22° C., TKMC buffer) was 0.97 nM and the “Relative specificity (square brackets), TGGCCA” value [4, 6] was 20. For the same compound, the “ability to discriminate between the CG and the GC mismatch base pair” value ([5]; TGGCCA versus TGGGCA sites) was “a property not shown by the parent 1”, the Kd ([5]; read-out: Equilibrium Dissociation Constants Kd, TGGGCA, single base pair mismatch site, 22° C., TKMC buffer) was 0.76 nM and the “Relative specificity (square brackets), TGGGCA” value [5, 6] was 16. For the same compound, the “ability to stabilize Exd binding to the adjacent cognate DNA site (TGAT)” value (Exd) was “Neither the parent polyamide lacking the YPWM hook, nor the polyamide bearing an altered hook (FYPAAK) (SEQ. ID. NO: 14) was able to stabilize Exd binding”.
